Data published in ChEMBL document CHEMBL4043273, “Phenotypic Optimization of Urea-Thiophene Carboxamides To Yield Potent, Well Tolerated, and Orally Active Protective Agents against Aminoglycoside-Induced Hearing Loss” (J Med Chem, 2018).

Chains of the proteins cited; added tags and fusions are not shown. Lines headed by an entry give the natural chain unless they say otherwise; changes in a name come on top.
UniProt Q12809: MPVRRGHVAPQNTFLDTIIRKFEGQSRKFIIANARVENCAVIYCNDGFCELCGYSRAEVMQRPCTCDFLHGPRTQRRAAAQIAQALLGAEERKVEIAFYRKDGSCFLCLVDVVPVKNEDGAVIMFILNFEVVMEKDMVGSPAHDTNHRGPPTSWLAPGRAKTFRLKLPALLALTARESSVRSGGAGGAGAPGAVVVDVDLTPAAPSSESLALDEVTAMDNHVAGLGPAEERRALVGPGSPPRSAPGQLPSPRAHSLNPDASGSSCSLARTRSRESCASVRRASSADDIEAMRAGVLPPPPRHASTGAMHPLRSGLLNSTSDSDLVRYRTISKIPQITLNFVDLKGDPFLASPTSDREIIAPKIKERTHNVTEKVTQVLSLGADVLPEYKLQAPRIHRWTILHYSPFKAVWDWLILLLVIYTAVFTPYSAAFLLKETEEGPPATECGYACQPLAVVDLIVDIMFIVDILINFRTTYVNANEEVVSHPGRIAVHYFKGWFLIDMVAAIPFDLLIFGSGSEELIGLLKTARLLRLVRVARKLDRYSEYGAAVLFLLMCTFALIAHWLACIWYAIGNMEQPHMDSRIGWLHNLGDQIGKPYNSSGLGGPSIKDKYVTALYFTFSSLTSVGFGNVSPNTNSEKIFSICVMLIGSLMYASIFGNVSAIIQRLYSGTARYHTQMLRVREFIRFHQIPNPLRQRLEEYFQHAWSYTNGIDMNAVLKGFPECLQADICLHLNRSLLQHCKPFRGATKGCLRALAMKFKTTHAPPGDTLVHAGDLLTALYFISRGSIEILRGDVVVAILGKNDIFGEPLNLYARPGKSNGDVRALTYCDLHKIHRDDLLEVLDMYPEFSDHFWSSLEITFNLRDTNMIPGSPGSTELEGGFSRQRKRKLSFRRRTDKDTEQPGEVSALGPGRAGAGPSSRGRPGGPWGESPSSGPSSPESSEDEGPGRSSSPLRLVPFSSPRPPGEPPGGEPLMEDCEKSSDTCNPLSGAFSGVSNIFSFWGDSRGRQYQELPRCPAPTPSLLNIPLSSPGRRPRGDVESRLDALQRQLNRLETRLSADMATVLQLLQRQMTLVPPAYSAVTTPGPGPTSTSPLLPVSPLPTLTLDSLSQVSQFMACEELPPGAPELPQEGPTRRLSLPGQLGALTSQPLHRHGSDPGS

Tests used:
[1] = species: Danio rerio; assay: Protection against neomycin-induced hair cell death in AB zebra fish larvae assessed as increase in hair cell survival at 12.5 uM preincubated for 1 hr followed by neomycin challenge for 1 hr by DASPEI staining-based epifluorescence dissecting microscopic method relative to control; assay type: functional
[2] = biological target: Voltage-gated inwardly rectifying potassium channel KCNH2 (Homo sapiens, UniProt Q12809); conditions: hek293

SMILES	%max [1] [%]	IC50 [2] [µM]
CCN1CCc2c(sc(NC(=O)Nc3ccc(Cl)cc3)c2C(N)=O)C1.Cl	94	
CN1[C@@H]2CC[C@H]1c1c(sc(NC(=O)Nc3ccc(Cl)cc3)c1C(N)=O)C2.Cl		5.6
